Target: Prothrombin (Bos taurus, UniProt P00735)

CS(=O)(=O)N1CCN(C(=O)C(Cc2cccc(C(=N)N)c2)NS(=O)(=O)c2ccc3ccccc3c2)CC1 (stereo unspecified)
Ki: 3.3 nM

Source: ChEMBL document CHEMBL1130155, “Synthesis and structure-activity relationships of potent thrombin inhibitors: piperazides of 3-amidinophenylalanine” (J Med Chem, 1997)
